From US7001983B1, “Antipathogenic synthetic peptides and compositions comprising them” (priority 1997, dated 2006)

Experiment: CD spectroscopy, α-helix content
Type: physicochemical
Conditions: CD in PBS
Method: (vii) CD Spectroscopy. The CD spectra of the peptides were measured with a Jasco J-500A spectropolarimeter after calibrating the instrument with (+)-10-camphorsulfonic acid. The spectra were scanned at 23° C. in a capped, quartz optical cell with a 0.5 mm path length. Spectra were obtained at wavelengths of 250 to 190 nm. Eight scans were taken for each peptide at a scan rate of 20 nm/min. […] Fractional helicities (Greenfield and Fasman, 1969; Wu et al., 1981) were calculated as follows: [formula] where [θ]222 is the experimentally-observed mean residue ellipticity at 222 nm, and the values for [θ]^0222 and [θ]^100222, which correspond to 0% and 100% helix content at 222 nm, are estimated to be 2000 and 32000 deg·cm^2/dmole,
1.2 Determination of the secondary structure of the peptides.

Substance Pardaxin has a α-helix content of roughly 12%.
